This is a selection; strong and weak results do not stand in their true shares. Inconclusive results are not listed. Active and inactive are the calls of the source. Calls follow the shape of the dose curve; as a rule, active = well fitted curve in the direction sought with a large enough effect; inconclusive = small, poorly fitted or top-dose-only effect, or another doubt; inactive = no such curve, though single readings can be large; an effect the other way counts as inactive or inconclusive.
Assays:
[1] = biological target: Aldehyde dehydrogenase, mitochondrial (Homo sapiens) (UniProt P05091); assay: qHTS for Inhibitors of the Aldehyde Dehydrogenase Family (ALDH2) Primary screen (AID 2061308); details: ALDH2 enzyme inhibition qHTS, 1536-well; at 56 µM (top of the series);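 also: plate controls were vehicle for no effect and reference inhibitor for full effect; nearly all actives have a fitted effect of over 55% in size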
[2] = biological target: Retinaldehyde dehydrogenase 3 (Homo sapiens) (UniProt P47895); assay: qHTS for Inhibitors of the Aldehyde Dehydrogenase Family (ALDH1A3) Validation screen (AID 2061312); details: ALDH1A3 enzyme inhibition qHTS validation, fluorescence; at 84.7 µM (top of the series); also: % is scaled to controls: 0 for no effect and ±100 for the full control effect; nearly all actives have a fitted effect of over 45% in size
[3] = biological target: Retinaldehyde dehydrogenase 3 (Homo sapiens) (UniProt P47895); assay: qHTS for Inhibitors of the Aldehyde Dehydrogenase Family (ALDH1A3) Primary screen (AID 2061315);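 also: plate controls were DMSO vehicle for no effect and reference inhibitor for full effect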; details: S. pombe CHP2027 cells, fluorescence laser cytometry, 18 h; at 56 µM (top of the series)
[4] = BET inhibitor-based combinations targeting novel dependencies in MECOM-rearranged (r) AML: SET-2 cell line (AID 2202231); details: SET-2 AML cells viability, CellTiter-Glo luminescence, 48 h; stronger effect = lower value; concentration not given here;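 also: plate controls were DMSO treated cells for no effect and wells without cells for full effect; nearly all actives have a fitted effect of over 35% in size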
Description: (§1) Ecotropic viral insertion site 1 (EVI1) is located on chromosome 3q26.2 as part of the MECOM (MDS and EVI1 complex) locus. Under normal hematopoiesis, EVI1 is a regulator of hematopoietic stem cell maintenance and self-renewal and EVI1 levels decrease as the cells differentiate. In approximately 5-10% of de novo acute myeloid leukemia (AML) EVI1 is aberrantly expressed, including Chromosomal inv(3)(q21;q26.2) or t(3;3)(q21;q26.2) alterations (MECOM-r) that account for about 50% of AML with EVI1 overexpression 31. AMLs with high levels of EVI1 have a poor prognosis and an overall survival time averaging between 10-14 months. EVI1 overexpression confers resistance in leukemia cells, highlighting the need to develop new targeted therapies for EVI1 overexpressing AMLs. […]
(§2) A collection of 2480 mechanistically annotated dugs (MIPE v5.0) was used to screen four 3q26.2 rearranged AML cell lines and three non-3q26.2 rearranged AML cell lines. […] Cell viability was determined by luminescence based, Cell Titer Glo assay (Promega). […] Luminescence readings were taken using a Viewlux (PerkinElmer) with a 2 s exposure time per plate. […] Quantitative drug activity data from dose-response curves was determined utilizing area Under the Curve (AUC) and Z-transformed AUC (Z-AUC, a mean-centering transformation applied to each individual cell-line screened).

[5] = BET inhibitor-based combinations targeting novel dependencies in MECOM-rearranged (r) AML: OCI-AML3 cell line (AID 2202232); details: CellTiter-Glo luminescence, 48 h; at 46 µM (top of the series);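 also: plate controls were DMSO vehicle wells for no effect and wells without cells for full effect; nearly all actives have a fitted effect of over 35% in size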
Description: as §1, §2

[6] = BET inhibitor-based combinations targeting novel dependencies in MECOM-rearranged (r) AML: MV-4-11 cell line (AID 2202233); details: MV-4-11 AML viability, CellTiter-Glo luminescence, 48 h; at 46 µM (top of the series);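 also: plate controls were DMSO for no effect and blank wells for full effect; nearly all actives have a fitted effect of over 45% in size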
Description: as §1, §2

[7] = BET inhibitor-based combinations targeting novel dependencies in MECOM-rearranged (r) AML: HNT-34 cell line (AID 2202234); details: HNT-34 AML viability, CellTiter-Glo luminescence, 48 h; at 46 µM (top of the series);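 also: plate controls were vehicle wells for no effect and cell-free wells for full effect; nearly all actives have a fitted effect of over 35% in size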
Description: as §1, §2

[8] = BET inhibitor-based combinations targeting novel dependencies in MECOM-rearranged (r) AML: UCSD-AML1 cell line (AID 2202235); details: UCSD-AML1 AML cells viability, CellTiter-Glo, 48 h; at 46 µM (top of the series);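 also: plate controls were DMSO vehicle wells for no effect and blank wells for full effect; nearly all actives have a fitted effect of over 40% in size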
Description: as §1, §2

[9] = BET inhibitor-based combinations targeting novel dependencies in MECOM-rearranged (r) AML: AML-191 cell line (AID 2202236;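 also: plate controls were vehicle wells for no effect and wells without cells for full effect; nearly all actives have a fitted effect of over 35% in size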); details: AML-191 viability, CellTiter-Glo luminescence, 48 h; at 46 µM (top of the series)
Description: as §1, §2

[10] = BET inhibitor-based combinations targeting novel dependencies in MECOM-rearranged (r) AML: AML-194 cell line (AID 2202237;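 also: plate controls were vehicle wells for no effect and wells without cells for full effect; nearly all actives have a fitted effect of over 40% in size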); details: AML-194 (MECOM-r AML) viability, CellTiter-Glo, 48 h; at 46 µM (top of the series)
Description: as §1, §2

CC(=O)N1CCc2ccc(N(C(=O)/C=C/c3cccc(C#N)c3)C3CCN(CCC4CCCC4)CC3)cc21
inactive: activity change, negative = inhibition [1] 1.77% | activity change, negative = inhibition [2] 49.7% | activity change, negative = inhibition [3] 1.89%

CCOC(=O)C(=O)CBr
inactive: viability [4] 86.9% | viability (% of control) [5] 106% | viability, % of control [6] 105% | viability (% of control) [7] 99.9% | viability (% of control) [8] 106% | viability (% of control) [9] 112% | viability (% of control) [10] 109%
